Compounds with a hit are over-represented: about 13% of the library has one in this group of screens.
ALDH1A1 inh – blocks purified human ALDH1A1 activity | AID 1030 | Purified ALDH1A1, NADH fluorescence, propionaldehyde substrate | 220,000 compounds, 7.3% hits | P00352 | Potency, µM (series often up to 75.3 µM), most hits filed as inhibitors; active = well fitted inhibition curve with a large enough effect, not every such curve was filed as active; inconclusive = small, poorly fitted or top-dose-only effect, or another doubt; inactive = no such curve, though single readings can be large or run the other way
KDM4E inh – blocks human JMJD2E demethylase activity; B2RXH2; JMJD2E catalytic domain, FDH-coupled NADH fluorescence (FDH is formaldehyde dehydrogenase); Potency, µM (top dose mostly 57.1 µM), actives largely listed as inhibitors; 230,000 compounds, 1.6% hits; AID 2147; active = well fitted inhibition curve with a large enough effect, not every such curve was filed as active; inconclusive = small, poorly fitted or top-dose-only effect, or another doubt; inactive = no such curve, though single readings can be large or run the other way; note: nearly all actives have a fitted effect of over 50% in size
Sfp inh – inhibitors of Bacillus subtilis Sfp phosphopantetheinyl transferase | AID 1490 | Biochemical Sfp PPTase activity, qHTS | Potency, µM, usual class: inhibitors | Q9F4F7 | 310,000 compounds, 3.5% hits;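 note: the enzyme is Sfp with the accession as filed and its product quenches rhodamine fluorescence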
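Reaction rates are the 30-min fluorescence difference (ex 525, em 598 nm) in wells containing 15 nM Sfp, 5 uM rhodamine-CoA and 12.5 uM BHQ-2-YbbR at pH 7.6 with 10 mM MgCl2.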
Lamin A splicing – changes lamin A minigene splicing in HeLa cells; AID 1487; HeLa LMNA splicing GFP/RFP minigene ratio, 48 h; 200,000 compounds, 0.01% hits; Potency, µM (top dose mostly 46.1 µM), actives largely listed as inhibitors; active = well fitted inhibition curve with a large enough effect in the signal ratio, with a control signal flat, not every such curve was filed as active; inconclusive = small, poorly fitted or top-dose-only effect, or effect the other way, or a change in a side signal; the % refers to the signal ratio
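Read-out is the ratio of GFP to DsRed2 object intensity, acquired by 488 nm laser-scanning cytometry on HeLa lamin A-EGFP minigene reporter cells. Compound incubation 48 hrs at 37 °C in Opti-MEM with 2% FBS; DMSO 0.5% final.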
miR-21 FLuc – miR-21 reporter, rising signal; Potency, µM (doses to about 38.3 µM); HeLa miR-21 FLuc reporter, luciferase, 48 h; 340,000 tested, under 10 active; active = well fitted rising curve with a large enough effect; inconclusive = small, poorly fitted or top-dose-only effect; inactive = no such curve, though single readings can be large or run the other way;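 further: miR-21 action dims this reporter so a rising signal means less miR-21 action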
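Luminescence from a firefly luciferase reporter carrying a miR-21 binding site downstream, stably expressed under a CMV promoter in HeLa cells that make miR-21 endogenously, reports miRNA modulation after 48 h compound exposure up to approximately 40uM final.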
G9a inh – inhibitors of human histone lysine methyltransferase G9a. Q96KQ7. G9a H3K9 monomethylation, AlphaScreen, 2 h. Potency, µM (doses to about 102 µM), most hits filed as inhibitors. 350,000 compounds, 8.8% hits; note: nearly all actives have a fitted effect of over 75% in size
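Compounds were preincubated with 20 nM G9a for 15 min, after which biotinylated H3K9 peptide (500 nM) and SAM (20 uM) started a 2 h room-temperature reaction. Monomethylated product was quantified by antibody-based AlphaScreen chemiluminescence.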
A number is an active result; - = inactive; ? = inconclusive; . = no result; [ ] = dose if it differs, or a comment. Unless noted, calls come from the whole dose curve; as a rule, active = well fitted curve in the direction sought with a large enough effect; inconclusive = small, poorly fitted or top-dose-only effect, or another doubt; inactive = no such curve, though single readings can be large; an effect the other way counts as inactive or inconclusive.

SMILES	ALDH1A1 inh	KDM4E inh	Sfp inh	Lamin A splicing	miR-21 FLuc	G9a inh
O=C(O)c1cccc2c1C(=O)c1ccccc1-2	22µM	-	-	?	-	.
CNc1c(C(=O)O)ccc2c1C(=O)c1ccccc1C2=O	-	?	-	-	-	14µM
O=C(O)c1ccc2c(c1Nc1ccccc1)C(=O)c1ccccc1C2=O	.	-	-	.	-	40µM
COc1cccc(N2CCN(C(=O)CCn3nc(C)c(S(=O)(=O)N4CCCC4)c3C)CC2)c1	.	.	.	-	-	-[12.7 µM]
O=C(CCc1nc(-c2ccccn2)no1)NCc1ccc2c(c1)OCO2	.	-	-	.	-	-
O=C(CCc1nnc(Cc2ccc3c(c2)OCO3)o1)NCc1nc2ccccc2s1	-	-	-	?	-	45µM
CC1C(=O)N2CCCc3cc(NC(=O)C4CC4)cc1c32 (stereo not drawn)	.	.	.	.	.	-
Cc1cc2[nH]c3c(c[n+](C)c4ccccc34)c2cc1C	?	-	-	.	?	18µM
Cc1cc2c([nH]c3ccccc32)c2c1OC(C)(C)C=C2	.	-	-	.	-	?
CCSc1nnc2c(n1)OC1(CCCC1)Nc1ccccc1-2	?	-	-	-	-	35µM
CCSc1nnc2c(n1)OC(c1ccc(C)s1)Nc1ccccc1-2 (stereo not drawn)	.	.	.	.	-	-
COc1ccc(S(=O)(=O)N2CCCCC2)cc1NC(=O)[C@@H]1CCCN1C(=O)c1cccs1	.	.	.	.	.	-[2.33 µM]
Cc1ccc(C)c(CNC(=O)CN2C(=O)CSc3ccc(S(=O)(=O)N(C)C)cc32)c1	.	.	.	.	-	-
Clc1ccc(C2=NNC(=NCC3CCCO3)SC2)cc1 (stereo not drawn)	8.9µM	-	-	-	-	?
CCN=C1NN=C(c2cc(C)n(Cc3ccco3)c2C)CS1	?	-	-	-	-	-
N#Cc1nc(-c2ccc(Cl)cc2)oc1NCC1CCCO1 (stereo not drawn)	?	?	-	-	-	?
C=CCn1c(C)cc(C2=NNC(=NCc3ccccc3)SC2)c1C	?	?	-	.	-	?
Cc1cc(C2=NNC(=NCCc3ccccc3)SC2)c(C)n1CC1CCCO1 (stereo not drawn)	?	?	50µM	-	-	35µM
CCN=C1NN=C(c2cc(C)n(CCc3ccccc3)c2C)CS1	?	?	50µM	.	-	?
CC(=O)OCCn1c(C)[n+](CCOC(C)=O)c2cc(Cl)c(Cl)cc21	-	-	-	.	-	50µM
CCN(CC)CCn1c2c(c(SCC(=O)Nc3cccc4ccccc34)nc1=O)CCCC2	.	.	.	.	.	13µM
CN(C)CCCn1c2c(c(SCC(=O)Nc3cccc4ccccc34)nc1=O)CCC2	.	.	.	.	.	50µM
CCOc1ccccc1NC1c2ccccc2C(=O)N1c1cccnc1 (stereo not drawn)	?	-	-	-	-	79µM
COc1ccc(CNC(=O)C2=CC(c3cccc(OC)c3)=NS(=O)(=O)N2C)cc1	.	.	.	.	-	-
COc1ccc(NC(=O)C2=CC(c3ccc(C)cc3)=NS(=O)(=O)N2C)cc1OC	.	.	-	.	-	?
SMILES	ALDH1A1 inh	KDM4E inh	Sfp inh	Lamin A splicing	miR-21 FLuc	G9a inh
COc1ccc(C2=NS(=O)(=O)N(C)C(C(=O)Nc3ccc(OC)c(OC)c3)=C2)cc1	.	.	-	.	-	35µM
COc1cccc(C2=NS(=O)(=O)N(C)C(C(=O)Nc3cccc(O)c3)=C2)c1	.	.	.	.	-	14µM
COc1ccc(S(=O)(=O)N(CC(=O)Nc2ccc(F)c(Cl)c2)c2ccc(C)cc2)cc1OC	.	.	.	?	-	-
CCN(C(=O)c1cccn(Cc2ccccc2C)c1=O)c1ccccc1	.	.	.	-	-	-
CN1C(=O)Cc2cc(S(=O)(=O)N3CCN(c4cccc(Cl)c4)CC3)ccc21	.	.	-	.	-	-[0.501 µM]
COc1ccc(CNC(=O)COC(=O)CO/N=C(\C)c2ccc3c(c2)OCO3)cc1	.	.	.	.	.	-
COc1ccc2c(c1)CCC1C2=NN(/C(C)=C/C(C)=O)C1c1cccc(F)c1 (stereo not drawn)	28µM	-	-	.	-	-
CC(=O)N1N=C2c3ccccc3CCC2C1c1ccc(F)cc1 (stereo not drawn)	-	-	-	.	-	-
COc1ccc2c(c1OC)C(Cc1ccccc1)N1CCc3cc4c(cc3C1C2)OCO4 (stereo not drawn)	?	?	56µM	.	.	.
